Experimental data: patent US11718650B2, “Immunogenic peptides and their use in immune disorders” (IMCYSE SA, priority 2006, dated 2023)

Tested on: spleen CD4+ T cells
Settings: pre-immunisation before IP Der p 2 in alum

QYIKANSKFIGITELGGCHGSEPCIIHRGKPF
production of cytokines by CD4+ spleen cells stimulated with Der p 2: reduced to undetectable concentrations
